Columns and labels:
RBP4 = RBP4 (Homo sapiens (Human), UniProt P02753); assay: Scintillation proximity (SPA) RBP4 binding assay; conditions: 10 nM 3H-Retinol, 50 nM biotinylated RBP4
Method: Scintillation Proximity RBP4 Binding Assay
Untagged human RBP4 purified from urine of tubular proteinuria patients was purchased from Fitzgerald Industries International. It was biotinylated using the EZ-Link Sulfo-NHS-LC-Biotinylation kit from Pierce following the manufacturer's recommendations. Binding experiments were performed in 96-well plates (OptiPlate, PerkinElmer) in a final assay volume of 100 μl per well in SPA buffer (IX PBS, pH 7.4, 1 mM EDTA, 0.1% BSA, 0.5% CHAPS). The reaction mix contained 10 nM ^3H-Retinol (48.7 Ci/mmol; PerkinElmer), 0.3 mg/well Streptavidin-PVT beads, 50 nM biotinylated RBP4 and a test compound. Nonspecific binding was determined in the presence of 20 μM of unlabeled retinol. The reaction mix was assembled in the dark under dim red light. The plates were sealed with clear tape (TopSeal-A: 96-well microplate, PerkinElmer), wrapped in the aluminum foil, and allowed to equilibrate 6 hours at room temperature followed by overnight incubation at +4° C. Radiocounts were measured using a TopCount NXT counter (Packard Instrument Company).

RBP4-TTR interaction = RBP4-TTR interaction (Homo sapiens (Human), UniProt P02753); assay: TR-FRET (HTRF) assay for retinol-induced RBP4-TTR interaction; assay type: biochemical; conditions: in the presence of 1 μM retinol; read-out: HTRF assay for antagonists of RBP4-TTR interaction: IC50
Method: Bacterially expressed MBP-RBP4 and untagged TTR were used in this assay. […] Human untagged TTR was purchased from Calbiochem. […] HTRF assay was performed in white low volume 384 well plates (Greiner-Bio) in a final assay volume of 16 μl per well. […] All reactions were assembled in the dark under dim red light and incubated overnight at +4° C. wrapped in aluminum foil. […] The TR-FRET signal was expressed as the ratio of fluorescence intensity: Flu665/Flu620×10,000.

O=C(c1n[nH]c2c1CCN(CC(F)(F)F)C2)N1CCC(c2ccc(F)c(F)c2C(F)(F)F)CC1 [Compound 125, (4-(3,4-Difluoro-2-(trifluoromethyl)phenyl)piperidin-1-yl)(6-(2,2,2-trifluoroethyl)-4,5,6,7-tetrahydro-1H-pyrazolo[3,4-c]pyridin-3-yl)methanone]
IC50 (RBP4): 15 nM | IC50 (RBP4-TTR interaction): 62.1 nM

Source: US9434727B2, “Substituted 4-phenylpiperidines, their preparation and use” (THE TRUSTEES OF COLUMBIA UNIVERSITY IN THE CITY OF NEW YORK, priority 2014, dated 2016)
